Measurements from patent US6635432B1, “Peptide potentiation of acid-sensory ion channel in pain” (University of Iowa Research Foundation, priority 2000, dated 2003).

Columns and labels:
BNC1 = target: T1, BNC1 (Homo sapiens, UniProt Q16515); assay: Two-electrode voltage-clamp of Xenopus oocytes expressing BNC1; format: cell-based; settings: pH 5
T1 construct: expressed in transfected cells; host or cells: Xenopus laevis oocytes (nuclear injection of pMT3 plasmid)
T1 sequence (Q16515 1-512): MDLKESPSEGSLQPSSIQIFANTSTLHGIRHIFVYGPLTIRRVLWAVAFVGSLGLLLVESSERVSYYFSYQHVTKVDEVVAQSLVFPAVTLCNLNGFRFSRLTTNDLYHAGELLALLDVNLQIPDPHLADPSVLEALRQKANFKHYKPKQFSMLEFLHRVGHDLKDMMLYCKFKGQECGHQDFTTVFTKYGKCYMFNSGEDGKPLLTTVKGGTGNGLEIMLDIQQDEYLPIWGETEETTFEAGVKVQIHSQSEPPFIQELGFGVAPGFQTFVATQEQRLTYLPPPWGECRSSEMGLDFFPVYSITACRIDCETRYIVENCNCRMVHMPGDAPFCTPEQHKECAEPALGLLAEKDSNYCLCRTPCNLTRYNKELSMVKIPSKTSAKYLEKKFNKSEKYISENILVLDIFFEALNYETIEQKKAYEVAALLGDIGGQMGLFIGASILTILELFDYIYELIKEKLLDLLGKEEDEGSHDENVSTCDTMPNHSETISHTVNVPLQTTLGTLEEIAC
Excerpt: (§1) Human ASICα was cloned from brain polyA RNA. Rat ASICβ and mouse DRASIC were cloned from DRG RNA. Human BNC1 was cloned as described in Price et al. (1996)(Price, M. P., Snyder, P. M., and Welsh, M. J. (1996). Cloning and expression of a novel human brain Na^+ channel. J Biol Chem 271, 7879-7882). Constructs were cloned into pMT3 for expression. The validity of the constructs was confirmed by DNA sequencing.
(§2) Expression of the cDNA constructs in Xenopus oocytes was accomplished by injection of plasmid DNA into the nucleus of defolliculated albino Xenopus laevis oocytes (Nasco, Fort Atkinson, Wis.) as described previously (Adams, C. M., Snyder, P. M., Price, M. P., and Welsh, M. J. (1998). Protons activate brain Na^+ channel 1 by inducing a conformational change that exposes a residue associated with neurodegeneration. J Biol Chem 273, 30204-30207). Plasmids were injected at concentrations of 100 ng/μl for most experiments. Oocytes were incubated in modified Barth's solution at 18° C. for 12-26 hr after injection. Cells injected with DRASIC were allowed to incubate for 24-48 hr before analysis.
Whole-cell currents in oocytes were measured using a two-electrode voltage-clamp as previously described (Adams, et al. (1998)). […]

water-injected oocytes = assay: Control, water-injected Xenopus oocytes; format: cell-based, Xenopus laevis; settings: pH and FMRFamide in any combination
Method: as §2
Whole-cell currents in oocytes were measured using a two-electrode voltage-clamp as previously described (Adams, et al. (1998)). Oocytes were bathed in frog Ringers solution containing, in mM: 116 NaCl, LiCl or KCl, 0.4 CaCl2, MgCl2, 5 4-(2-hydroxyethyl)-1-piperazineethanesulfonic acid (HEPES), pH 7.4. Acidic solutions were buffered with 5 mM 2-(4-morpholino)-ethanesulfonic acid (MES) instead of HEPES. Membrane voltage was held at −60 mV unless otherwise noted. Most peptides and naloxone were obtained from Sigma Chemical Co. (St. Louis, Mont.) and were added to the extracellular solution. The peptide FRRFamide was synthesized by Research Genetics (Huntsville, Ala.).

ASICα [1] = target: T2, ASICα (Homo sapiens, UniProt P78348); assay: Whole-cell patch-clamp of HEK-293T cells transfected with ASICα; format: cell-based; design: expressed in transfected cells
T2 sequence (P78348 1-528): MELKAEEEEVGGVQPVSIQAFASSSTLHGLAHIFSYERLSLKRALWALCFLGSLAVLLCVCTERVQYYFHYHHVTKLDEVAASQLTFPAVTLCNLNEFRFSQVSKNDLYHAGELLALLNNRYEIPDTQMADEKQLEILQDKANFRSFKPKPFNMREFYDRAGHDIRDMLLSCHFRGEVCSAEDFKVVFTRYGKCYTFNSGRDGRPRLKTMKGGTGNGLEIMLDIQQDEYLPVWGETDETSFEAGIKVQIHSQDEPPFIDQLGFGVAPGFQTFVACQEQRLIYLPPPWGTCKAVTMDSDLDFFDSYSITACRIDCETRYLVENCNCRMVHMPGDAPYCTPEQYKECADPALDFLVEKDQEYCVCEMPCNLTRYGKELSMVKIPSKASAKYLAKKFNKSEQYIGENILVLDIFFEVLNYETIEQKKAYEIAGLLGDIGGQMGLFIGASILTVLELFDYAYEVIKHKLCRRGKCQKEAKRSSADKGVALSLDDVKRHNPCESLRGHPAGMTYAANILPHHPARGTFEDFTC
Excerpt: Human ASICα was cloned from brain polyA RNA. Rat ASICβ and mouse DRASIC were cloned from DRG RNA. […] Constructs were cloned into pMT3 for expression.
(§3) To identify transfected cells, pGreenlantern vector encoding green fluorescent protein (Gibco, Gaithersburg, Md.) was co-transfected with ASICα at a ratio of 1:6; transfected cells were identified using epifluorescence microscopy. Cells were studied 1-2 days after transfection.
The pipette solution contained, in mM: 120 KCl, 10 NaCl, 2 MgCl2, 5 EGTA, 10 HEPES. Perfusion of cells with different solutions was done by placing the appropriate outlet in front of the cell. Data were recorded with an AXOPATCH 200 (Axon Instruments, Foster City, Calif.) and stored on a digital tape recorder. Digitization was executed by acquiring data at 400 Hz using pClamp6 (Axon Instruments, Foster City, Calif.).

ASICα [2] = target: T2, ASICα; assay: Excised, outside-out patches from HEK-293T cells transfected with ASICα; format: cell-based; design: expressed in transfected cells; host or cells: Xenopus laevis oocytes (nuclear injection of pMT3 plasmid); settings: FMRFamide 100 μM; pH 5
Excerpt: as §1
as §3, with “HEK-293T cells were a gift of Dr. Mark Stinski (Univ. of Iowa). ASICα cDNA was transfected into HEK-293T cells using Transfast lipid reagents (Promega, Madison, Wis.). To” for “To”
Excised, outside-out patches were obtained from transfected HEK-293T cells. The bath solution contained, in mM: 140 NaCl, 2 MgCl2, 1.8 CaCl2, 10 HEPES at pH 7.4, or Tris(hydroxymethyl)aminomethane (Tris) or MES at pH 5. The pipette solution contained: 140 NMDG-Cl, 2 MgCl2, 2 EGTA, 10 HEPES, pH 7.4.
To test whether FMRFamide interacts directly with the channel, ASICα was expressed in HEK293 cells and current from excised, outside-out patches was recorded.

CSCC[C@H](NC(=O)[C@@H](N)Cc1ccccc1)C(=O)N[C@@H](CCCNC(=N)N)C(=O)N[C@@H](Cc1ccccc1)C(N)=O [FMRFamide, Phe-Met-Arg-Phe amide]
effect on acid-gated BNC1 currents (BNC1): not discernibly altered | current in control, water-injected oocytes (water-injected oocytes): Neither pH nor FMRFamide in any combination produced current | dependence of sustained current on sequence of FMRFamide and acid addition (ASICα [1]; pH 5): application of FMRFamide after the pH reduction failed to induce large sustained current | effect on H+-gated ASICα whole-cell current (ASICα [1]; pH 5, FMRFamide 50 or 100 μM): inactivation slowed and a sustained current was apparent | effect on inactivation of H+-dependent ASICα current in outside-out patches (ASICα [2]): inactivation was slowed substantially
